Usually Kd stands for the concentration at which binding is half-saturated. High values mean weaker binding, low ones tighter binding.

Protein sequences, listed by entry. Tags and fused reporters are not part of them. Residues count along the entry.
UniProt Q00987, 25-109 limits assumed: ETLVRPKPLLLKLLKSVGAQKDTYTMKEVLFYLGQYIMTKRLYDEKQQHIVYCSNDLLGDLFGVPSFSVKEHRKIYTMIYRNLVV
UniProt Q00987, 26-109 limits assumed: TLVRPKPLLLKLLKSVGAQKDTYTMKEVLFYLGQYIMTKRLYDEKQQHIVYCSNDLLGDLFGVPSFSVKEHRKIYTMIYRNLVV

Changes are numbered by the printed parent chain.

Data set [1] in a line: Immunogenicity: IL-2, TNF-α and EPO in blood (ELISA). Format: in vivo, C57BL/6 mice. The conditions noted are these: 5 mg/Kg subcutaneous every other day, three weeks. The method, then:
PBS was used as a negative control for mock treatment; IL-2 in the blood collected at the end of the treatment were quantified by ELISA kits (R&D Systems) using protein standards from Sigma-Aldrich. The data from each group are presented as the mean±SD (n=6), and statistical analysis was performed using T-test, * standing for p<0.05, *** for p<0.001, and **** for p<0.0001.
PBS was used as a negative control for mock treatment; TNF-α in the blood collected at the end of the treatment were quantified by ELISA kits (R&D Systems) using protein standards from Sigma-Aldrich. The data from each group are presented as the mean±SD (n=6), and statistical analysis was performed using T-test, * standing for p<0.05, *** for p<0.001, and **** for p<0.0001.
PBS was used as a negative control for mock treatment; EPO in the blood collected at the end of the treatment were quantified by ELISA kits (R&D Systems) using protein standards from Sigma-Aldrich. The data from each group are presented as the mean±SD (n=6), and statistical analysis was performed using T-test, * standing for p<0.05, *** for p<0.001, and **** for p<0.0001.
Immunogenicity of peptide/protein therapeutics often impedes their clinical use. […] IL-2 and TNF-α were used as markers because T cell responses are known to play a critical role in the development of immunogenic responses to therapeutic peptides and proteins. Since biotherapeutics can potentially generate cross-reactive neutralizing antibodies that inhibit endogenous proteins such as EPO, leading to anemia known as antibody-mediated pure red-cell aplasia, EPO was also used as a marker for immunogenicity in the study.
(In general: ELISA stands for enzyme-linked immunosorbent assay.)

Data set [2] addresses T1, MDM2 (p53-binding domain) (UniProt Q00987 25-109, limits assumed).
T1 construct: The ITC legends say only 'MDM2'
Kind of data set: ITC, stoichiometry. For orientation: In ITC the heat of successive injections is recorded.

Data set [3] deals with T1, MDM2 (p53-binding domain). Briefly: ITC, entropy of binding.
For data set [4], the target named is T1, MDM2 (p53-binding domain). Briefly: ITC, enthalpy of binding.
The test system of data set [5] is HCT116 p53^+/+ xenograft tumors. Kind of data set: Tumor growth inhibition in nude mouse xenograft model. Format: in vivo, BALB/c nude mice. To be noted: same dose of 5 mg/Kg; from molecular mass ratio.
For data set [6], the system named is p53, p21 and Ki-67 in tumor tissues. Briefly: Immunohistochemical staining of tumor tissues (p53, p21, Ki-67). The conditions noted are these: after three-week treatment, 5 mg/Kg. Format: in vivo, BALB/c nude mice. The method, then: Prepared tissue sections at 5 μm thickness were incubated with various antibodies at 4° C. overnight, and subsequently stained using the Labeled Streptavidin-Biotin (LSAB) staining method. Each stained section was evaluated by a minimum of 10 randomly selected ×20 high-power fields for further statistical analysis.
FIG. 7H is the statistical analysis of IHC scores. A numeric score ranging from 0 to 3 was used to evaluate immunostaining intensity (I): 0, no staining; 1, weak staining; 2, moderate staining; 3, strong staining. To evaluate immunostaining area (A), a numeric score ranging from 1 to 4 was used: 1, positive area<10%; 2, 10%<positive area<50%; 3, 50%<positive area<90%; 4, positive area>90%. The total score, I×A, was calculated accordingly, and statistical analysis was performed using T-test, * standing for p<0.05.
Taken together, the in vivo data unequivocally validates the design of ^PMIBcr/Abl-R6 as a potent antitumor agent that inhibits tumor growth in a p53-dependent fashion.

Data set [7] addresses T1, MDM2 (p53-binding domain). Briefly: ITC, 80 µM protein injected into 8 µM MDM2, 25° C., 20 mM Tris/HCl pH 7.4; ITC, 25 C, 80 uM protein and 8 uM MDM2.
In data set [8] the target is p53-binding domain of MDM2 (Homo sapiens, UniProt Q00987). Kind of data set: Binding affinity for MDM2 by isothermal titration calorimetry (ITC). The conditions noted are these: 25° C., 20 mM Tris/HCl, pH 7.4.

Regarding `CC(C)C[C@H](NC(=O)[C@H](C)NC(=O)[C@H](Cc1c[nH]c2ccccc12)NC(=O)[C@H](Cc1ccc(O)cc1)NC(=O)[C@H](CCC(=O)O)NC(=O)[C@H](C)NC(=O)[C@H](Cc1ccccc1)NC(=O)[C@H](CO)NC(=O)[C@@H](N)[C@@H](C)O)C(=O)N[C@@H](CC(C)C)C(=O)N[C@@H](CO)C(=O)N1CCC[C@H]1C(=O)O` [PMI, reference compound], in data set [1], the “EPO level in the blood” value was “decreased”, the “IL-2 level in the blood” value is on record as “noticeably increased” and the “TNF-α level in the blood” value is “noticeably increased”.

B1: ^PMIBcr/Abl-R6 (designed binder)
chain: MVDPTSFAEYWALLSPDSEPPRMELRSVGDIEQELERAKASIRRLEQEVNQERFRMIYLQTLLAKEKKSYDRRRRRRR
notes: Bcr/Abl tetramerization domain with PMI grafted in place of residues 5-16 and a C-terminal Arg hexapeptide (R6); 78 residues, chemically synthesized by native chemical ligation; Exists as a tetramer in aqueous buffer
Take B1: in data set [2], the N is 0.987. Besides, in data set [3], the ΔS was 2.33 cal/mol/deg. Moreover, in data set [4], the ΔH is -9.21 kcal/mol. Besides, in data set [5], the “activity relative to Nutlin-3 on molar basis, as a monomer” value was “at least 16 fold” and the “activity relative to Nutlin-3 on molar basis, as a tetramer” value is on record as not below 64 fold. Also, in data set [6], the “expression of Ki-67 in tumor tissues (IHC)” value is reported as “decreased”; the “expression of p53 and p21 in tumor tissues (IHC)” value is reported as “significantly increased”. Further, in data set [1], the “EPO level in the blood” value is recorded as “only slight changes”, the “IL-2 level in the blood” value is recorded as “only slight changes” and the “TNF-α level in the blood” value is “only slight changes”. In data set [7], the Kd is 32 nM.

B2: Bcr/Abl-R6 (other)
chain: B1 chain with T5V, S6G, Y10A, A12K, L13A, L14Q, S15F
notes: Negative control scaffold without the PMI graft: Bcr/Abl tetramerization domain with C-terminal R6; Chemically synthesized; tetramer in aqueous buffer
Take B2: in data set [8], the “binding affinity (KD) for MDM2” value is reported as “No binding was detected”.

For the origin of these results see patent US20220127335A1, “TETRAMERIC PROTEIN SCAFFOLDS AS NANO-CARRIERS OF THERAPEUTIC PEPTIDES FOR TREATING CANCER AND OTHER DISEASES” (UNIVERSITY OF MARYLAND, BALTIMORE, priority 2019, published 2022).
